Reference: ChEMBL document CHEMBL1275455, “Resistance and virulence of Pseudomonas aeruginosa clinical strains overproducing the MexCD-OprJ efflux pump” (2008)

Experiments:
[1] = test system: Pseudomonas aeruginosa; conditions: 2439
[2] = test system: Pseudomonas aeruginosa; conditions: 2126

## GENTAMICIN
[1]
  MIC: 0.5 µg/mL
[2]
  MIC: 0.5 µg/mL
